From ChEMBL document CHEMBL1833948, “Structural determinants of opioid and NOP receptor activity in derivatives of buprenorphine” (2011)

Test system: Mus musculus
Assay: Antinociceptive activity in sc dosed CD1 mouse by tail flick assay
Conditions: strain CD1, Tail

Structure (SMILES): CO[C@@]12CC[C@@]3(C[C@@H]1[C@](C)(O)C(C)(C)C)[C@H]1Cc4ccc(O)c5c4[C@@]3(CCN1CC1CC1)[C@H]2O5
- A50: 1 mg/kg
